Nrf2 block: blocks Nrf2 signaling; A549 ARE-Fluc reporter, luciferase luminescence, 18-24 h; Potency, µM (doses to about 46 µM), for the others: at the top dose activity change, negative = inhibition, most hits filed as inhibitors; hit rate 2.1% among 360,000; further: potency means the concentration at half of the fitted maximal effect; on the % scale 0 is the no-effect control and ±100 the full control effect; nearly all actives have a fitted effect of over 60% in size
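Quantitative HTS in A549 cells stably bearing an antioxidant response element-firefly luciferase construct. Inhibition of Nrf2-driven transcription was scored by luminescence after 18-24 h of compound exposure at 37 °C.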
miR-21 reporter: miR-21 reporter, rising signal | 340,000 tested, under 10 active | AID 2288 | HeLa miR-21 FLuc reporter, luciferase, 48 h | Potency, µM (titrated, usually from 38.3 µM), for inactives: at the highest dose reporter change, positive = more light; active = well fitted rising curve with a large enough effect; inconclusive = small, poorly fitted or top-dose-only effect; inactive = no such curve, though single readings can be large or run the other way;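 further: % of control where 0% means no effect; miR-21 action dims this reporter so a rising signal means less miR-21 action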
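HeLa miR-21-FLuc reporter line, endogenous miR-21; 2000 cells/well in DMEM/10% FBS; compound titration up to ~40uM final, 48 h, 37 degree Celsius; luciferase detection reagent, 15 min lysis, CCD luminescence.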
A549 tox: counter-screen for Nrf2 inhibitors: cytotoxicity in A549 cells. A549 ARE-Fluc cells, CellTiter-Fluor viability, 18-24 h. Potency, µM (titrated, usually from 46 µM), inactives show at the highest dose activity change, negative = cytotoxicity, actives largely listed as inhibitors. hit rate 0.16% among 390,000. AID 504648; further: potency means the concentration at half of the fitted maximal effect; on the % scale 0 is the no-effect control and ±100 the full control effect
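Cytotoxicity counterscreen: CellTiter-Fluor fluorescence was measured in A549 ARE_Fluc cells after 18-24 h of compound exposure in a concentration series. The subsequent BugLite luminescent read reports ARE-luciferase activity.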
PI4K2A inh: inhibitors of human PI4K2A; purified PI4K2A, ADP-Glo luminescence, 1 h; hits give low values; activity change, negative = inhibition, % at 76.9 µM; hit rate 0.13% among 420,000; in the data active means activity change below about -50%; inconclusive means mostly about -30% to -49%;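 further: -100% = wells without enzyme as full effect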
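PI4K2A activity was measured by ADP-Glo luminescence: enzyme (4 ug/mL stock) and phosphatidylinositol (1.2 mM stock) in Tris pH 7.5/MgCl2/EGTA/Triton X-100 buffer were reacted with ATP (300 microM stock) for one hour at ambient temperature.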
GALK inhibitor: blocks human galactokinase activity; P51570; Purified GALK, Kinase-Glo residual ATP luminescence; Potency, µM (top dose mostly 57.5 µM), for the others: at the top dose activity change, negative = inhibition, usual class: inhibitors; hit rate 0.007% among 270,000; further: potency means the concentration at half of the fitted maximal effect; on the % scale 0 is the no-effect control and ±100 the full control effect
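Galactose (100 uM) and ATP (35 uM) were turned over by 5 nM GALK for 1 h at RT. Kinase-Glo Plus then converted the remaining ATP into a luminescent signal.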
Nrf2 activator: activators of Nrf2 (ARE) signaling; AREc32 ARE-luciferase reporter (MCF7-derived line), luminescence, 24 h; Potency, µM (top dose mostly 46.1 µM), for the others: at the highest dose activation, hits mostly activators; hit rate 0.31% among 410,000; further: potency means the concentration at half of the fitted maximal effect; % of control where 0% means no effect; nearly all actives have a fitted effect of over 65% in size
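Nrf2 activation is followed as ARE-luciferase induction in the AREc32 line after one day of compound treatment; luminescence is read with Steady-Glo.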
* hit, by the source's call; ? = inconclusive; / = no result; [ ] = remark or other dose. Rows were chosen to be rich in hits. Some 2.2% of all compounds tested hit in one or more screens of this group. Unless noted, the call rests on the fitted dose curve; in most records, active means well fitted curve in the direction sought with a large enough effect; inconclusive means small, poorly fitted or top-dose-only effect, or another doubt; inactive means no such curve, though single readings can be large; an effect the other way counts as inactive or inconclusive.

Letters: A = Nrf2 block; B = miR-21 reporter; C = A549 tox; D = PI4K2A inh; E = GALK inhibitor; F = Nrf2 activator
> CSc1nc(C)c(Cl)c(C)c1C#N
  A = 2%	B = -1%	C = -7%	D = -3	E = 0%	F = -1%

> C[C@H]1[C@@H](OC(=O)Nc2ccc(C#N)cc2)CC[C@@]23CCCN2C(=O)CCC[C@@H]13
  A = /	B = /	C = /	D = 0	E = /	F = /

> CC(=O)c1ccc(OCC(O)CN2CCN(S(=O)(=O)c3c(C)c(C)cc(C)c3C)CC2)cc1 (stereo unspecified)
  A = 26µM*	B = 6%	C = ?	D = 5	E = -2%	F = 3%

> CCOc1cc(CNCCSc2nnnn2C)cc(Br)c1OCc1ccccc1F
  A = 23µM*	B = 23%	C = ?	D = 2	E = 5%	F = 5%

> OC(c1ccccc1)(c1ccccc1)C1CCN(C(=S)NCCc2ccccc2)CC1
  A = 23µM*	B = 18%	C = ?	D = -1	E = -1%	F = 0%

> O=C(OCC#CCSc1nnc(-c2cccc3ccccc23)o1)c1sccc1Cl
  A = 2%	B = /	C = -13%	D = 6	E = /	F = /

> S=C(NCc1ccc(Cl)cc1)OC1CCC12CCC(c1ccccc1)CC2 (stereo unspecified)
  A = /	B = /	C = /	D = -1	E = /	F = /

> Cc1nn(Cc2ccc(C(=O)NC(C)(C)C)o2)c(C)c1Br
  A = 18µM*	B = 13%	C = -16%	D = -2	E = -2%	F = 1%

> Cc1cc(NC(=O)c2ccc(Cn3nc(C)c(Br)c3C)o2)no1
  A = 9%	B = -5%	C = 5%	D = -11	E = 0%	F = 3%

> Cc1c(P(=S)(c2ccccc2)c2ccccc2)c2ccccc2n1C/C=C/c1ccccc1
  A = 8%	B = /	C = -1%	D = /	E = /	F = /

An excerpt from above in order of the miR-21 reporter value, high to low:
Structure,miR-21 reporter
OC(c1ccccc1)(c1ccccc1)C1CCN(C(=S)NCCc2ccccc2)CC1,18%
Cc1nn(Cc2ccc(C(=O)NC(C)(C)C)o2)c(C)c1Br,13%
CSc1nc(C)c(Cl)c(C)c1C#N,-1%
Cc1cc(NC(=O)c2ccc(Cn3nc(C)c(Br)c3C)o2)no1,-5%

Following part
Letters: A = Nrf2 block; B = miR-21 reporter; C = A549 tox; D = PI4K2A inh; E = GALK inhibitor; F = Nrf2 activator
> O=C(CSc1nnc(-c2ccncc2)n1-c1ccccc1)Nc1cccc2ccccc12
  A = /	B = /	C = /	D = -2	E = /	F = /

> COc1ccc(C(=O)/C=C/C(=O)N(CC(=O)NC2CCCCC2)CC2CCCO2)c(O)c1 (stereo unspecified)
  A = 21µM*	B = ?	C = ?	D = -3	E = -1%	F = ?

> CCOC(=O)[C@]12CCCC=C1N(CCCOC)C(=O)[C@@H]2CC(=O)NCc1cccc(C(F)(F)F)c1
  A = /	B = /	C = /	D = 1	E = /	F = /

> Nc1nc(Sc2ccc([N+](=O)[O-])c3nonc23)c2[nH]cnc2n1
  A = ?	B = /	C = ?	D = -52*	E = /	F = ?

> CN1CC(=O)NC1=N
  A = /	B = /	C = /	D = 4	E = /	F = /

> CC1(C)OC(=O)C2(Cc3cc([N+](=O)[O-])ccc3N3CCCCCC32)C(=O)O1 (stereo unspecified)
  A = 2%	B = /	C = -4%	D = /	E = /	F = /

> CCCCCCSc1ccc([C@H]2N[C@@](C)(C(=O)OC)[C@H]3C(=O)N(C)C(=O)[C@@H]23)cc1
  A = 26µM*	B = /	C = 0%	D = -3	E = /	F = -1%

> CCCCCCSc1ccc([C@@H]2[C@H]3C(=O)N(C)C(=O)[C@H]3[C@]3(C(=O)OC)CCCCN23)cc1
  A = -15%	B = /	C = 0%	D = 3	E = /	F = 0%

> CCCSc1ccc([C@H]2N[C@@](C)(C(=O)OC)[C@H]3C(=O)N(C)C(=O)[C@@H]23)cc1
  A = -28%	B = /	C = 0%	D = -1	E = /	F = 0%

> CCCCCCSc1ccc([C@@H]2[C@@H]3C(=O)N(CC)C(=O)[C@@H]3[C@]3(C(=O)OC)CCCCN23)cc1
  A = -23%	B = /	C = 16%	D = -52*	E = /	F = 0%

> COCC(=O)N(CCc1ccccc1)Cc1cc2cc(C)ccc2nc1Cl
  A = 0%	B = -2%	C = 6%	D = -2	E = 1%	F = 0%

> COCC(=O)N(CCc1ccc(OC)c(OC)c1)Cc1cc2cc(C)ccc2nc1Cl
  A = 16µM*	B = 12%	C = -1%	D = -2	E = 0%	F = 0%

> O=C(/C=C/c1ccccc1)NC(NC(=S)Nc1cc(Cl)ccc1Cl)C(Cl)(Cl)Cl (stereo unspecified)
  A = 4.1µM*	B = 23%	C = ?	D = 1	E = 1%	F = 9%

> O=C(Cc1ccccc1)NC(NC(=S)Nc1cc(Cl)ccc1Cl)C(Cl)(Cl)Cl (stereo unspecified)
  A = ?	B = 0%	C = -2%	D = -5	E = 2%	F = 3%

> Clc1ccc(-c2nnc(Sc3nc4ccccc4o3)c3ccccc23)cc1
  A = 18µM*	B = -14%	C = -26%	D = 8	E = 3%	F = ?

> Cc1ccc(-c2nnc(Sc3nc4ccccc4o3)c3ccccc23)cc1
  A = -21%	B = 29%	C = -2%[1.84 µM]	D = -7	E = 5%	F = 2%

> Cc1cc(C(=O)O[C@@H]2CCC[C@]3(C(=O)N(Cc4ccccc4)c4ccccc43)[C@H]2NC(=O)CCc2ccccc2)no1
  A = /	B = /	C = /	D = 0	E = /	F = /

> COc1cccc(/C=N/Nc2ccc(S(=O)(=O)O)cc2)c1O
  A = -16%	B = -3%	C = -6%	D = 0	E = 1%	F = 0%

> COc1cccc(/C=N/Nc2ccc(C(=O)O)cc2)c1O
  A = ?	B = ?	C = 1%	D = -73*	E = 13%	F = 0%

> O=C(NC(=S)Nc1cccc(Cl)c1N1CCCCC1)c1ccco1
  A = ?	B = 17%	C = -14%	D = 8	E = -2%	F = 11%

> O=C(NC(=S)Nc1ccccc1Cl)c1ccco1
  A = ?	B = -53%	C = 1%	D = 6	E = 7%	F = 13µM*

> COc1cc(C(=O)NC(=S)Nc2ccccc2N2CCCC2)cc(OC)c1OC
  A = 18µM*	B = 14%	C = -16%	D = -5	E = 7%	F = 6%

> CC(CCc1ccccc1)NC(=S)NC(=O)c1ccco1 (stereo unspecified)
  A = -9%	B = -6%	C = 11%	D = -2	E = 4%	F = 5%

> O=C(NC(=S)Nc1ccccc1N1CCCC1)c1ccco1
  A = 4%	B = -2%	C = 2%	D = -6	E = 5%	F = 14µM*

> O=C(NC(=S)N(CCc1ccccc1)CCc1ccccc1)c1ccco1
  A = 18µM*	B = 19%	C = -20%	D = -5	E = 3%	F = ?

> Cc1ccc(NC(=O)COc2ccccc2)cc1S(=O)(=O)N1CCCCC1
  A = /	B = /	C = /	D = 3	E = /	F = 0%

> Cc1ccc(NC(=O)COc2cccc(-n3cnnn3)c2)cc1S(=O)(=O)N1CCOCC1
  A = 23µM*	B = /	C = 0%	D = -2	E = /	F = 1%

> Cc1ccccc1OCC(=O)Nc1ccc(C)c(S(=O)(=O)N2CCCCCC2)c1
  A = 23µM*	B = /	C = -23%	D = -4	E = /	F = 1%

> Cc1ccc(S(=O)(=O)N2CCOCC2)cc1NC(=O)COc1cccc(-n2cnnn2)c1
  A = -7%	B = /	C = -4%	D = -7	E = /	F = 3%

> COc1ccc(NC(=O)COc2ccccc2Cc2ccccc2)cc1S(N)(=O)=O
  A = 13µM*	B = ?	C = ?	D = 0	E = 0%	F = 0%

> Cc1ccc(NC(=O)CN2CCCC2c2cccs2)cc1S(=O)(=O)N1CCCCC1 (stereo unspecified)
  A = 21µM*	B = /	C = -15%	D = 2	E = /	F = 1%

> CCOc1ccc(NC(=O)CN2CCCC2c2cccs2)cc1S(=O)(=O)N1CCCCC1 (stereo unspecified)
  A = ?	B = /	C = -5%	D = -1	E = /	F = 8%

> COc1ccc(NC(=O)CN(Cc2ccccc2)Cc2ccccc2)cc1S(N)(=O)=O
  A = 0%	B = -11%	C = ?	D = 5	E = 2%	F = -1%

> N#Cc1nc(Nc2ccc(F)cc2)nc(NC2CCCC2)n1
  A = -13%	B = /	C = -16%	D = /	E = /	F = /

> O=C(Nc1ccc(Oc2ccccc2)cc1)C1CCCN1S(=O)(=O)c1cccc2cccnc12 (stereo unspecified)
  A = /	B = /	C = /	D = 0	E = /	F = /
